In the assay the target is T1, CCR1 (Homo sapiens, UniProt P32246).
T1 sequence (P32246 1-355): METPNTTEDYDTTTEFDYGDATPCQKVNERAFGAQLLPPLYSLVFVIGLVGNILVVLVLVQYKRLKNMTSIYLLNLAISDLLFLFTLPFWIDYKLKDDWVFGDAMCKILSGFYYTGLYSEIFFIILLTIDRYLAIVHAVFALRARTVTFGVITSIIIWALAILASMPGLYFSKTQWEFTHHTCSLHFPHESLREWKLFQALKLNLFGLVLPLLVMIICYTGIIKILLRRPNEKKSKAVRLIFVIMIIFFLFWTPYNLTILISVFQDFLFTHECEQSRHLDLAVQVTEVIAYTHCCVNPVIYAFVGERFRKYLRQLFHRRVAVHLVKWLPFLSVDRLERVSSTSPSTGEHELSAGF
In words: Membrane-based NanoBRET competition assay with 12 (2000 nM) and CCR1_Nluc membranes. The class given is binding. Further details: Promega pNLF1-C (Nluc) #CCR010TN00; host or cells: HEK293T, transient (PEI). (Bioluminescence resonance energy transfer reports proximity on the nanometre scale.)

Each structure is given as a SMILES string.

In the case of `C[C@@H]1CN(Cc2ccc(F)cc2)CCN1C(=O)COc1ccc(Cl)cc1NC(N)=O` [compound 1, reference compound], the “Enhancement of CCR1 binding of 12” value is on record as “approximately 100%”.

The values above are taken from paper PMC11249626, “Fluorophore-Labeled Pyrrolones Targeting the Intracellular Allosteric Binding Site of the Chemokine Receptor CCR1” (ACS Pharmacology & Translational Science, 2024).
